Tests used:
Cannabinoid receptor 2 [1] = target: Cannabinoid receptor 2 (Homo sapiens, UniProt P34972); experiment: Displacement of [3H]CP55940 from human CB2 receptor expressed in HEK293 cells; format: cell-based
Procedure, shortened: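 Membranes from HEK293 cells expressing human CB2; displacement of [3H]CP-55,940 in 96-well filter format, GF/B filtration with 0.5% BSA in wash buffer, scintillation counting. IC50 from displacement, Ki by nonlinear regression; three independent experiments in duplicate, mean reported.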

Protein sequences, listed by entry. Tags and fused reporters are not part of them. Lines headed by an entry give the natural chain unless they say otherwise; changes in a name come on top.
UniProt P34972, whole entry: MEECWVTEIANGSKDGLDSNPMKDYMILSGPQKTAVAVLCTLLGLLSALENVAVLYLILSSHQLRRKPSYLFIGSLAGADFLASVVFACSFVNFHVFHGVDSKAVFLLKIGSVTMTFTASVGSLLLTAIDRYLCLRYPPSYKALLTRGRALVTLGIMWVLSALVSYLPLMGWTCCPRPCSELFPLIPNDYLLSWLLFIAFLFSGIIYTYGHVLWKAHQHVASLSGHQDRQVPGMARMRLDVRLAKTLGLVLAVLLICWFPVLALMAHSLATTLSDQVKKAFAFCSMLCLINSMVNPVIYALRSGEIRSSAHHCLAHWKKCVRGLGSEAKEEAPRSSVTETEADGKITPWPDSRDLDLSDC
UniProt P47936: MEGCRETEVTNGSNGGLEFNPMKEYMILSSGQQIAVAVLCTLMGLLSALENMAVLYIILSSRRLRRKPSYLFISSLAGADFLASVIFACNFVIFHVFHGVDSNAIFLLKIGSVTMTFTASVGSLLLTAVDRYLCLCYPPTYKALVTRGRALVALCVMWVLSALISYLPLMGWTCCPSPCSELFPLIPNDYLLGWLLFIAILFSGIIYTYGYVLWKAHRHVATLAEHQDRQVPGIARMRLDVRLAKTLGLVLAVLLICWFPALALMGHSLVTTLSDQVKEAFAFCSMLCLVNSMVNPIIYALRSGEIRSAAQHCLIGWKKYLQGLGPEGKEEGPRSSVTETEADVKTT

Cannabinoid receptor 2 [2] = target: Cannabinoid receptor 2 (Mus musculus, UniProt P47936); experiment: Displacement of [3H]CP55940 from mouse spleen CB2 receptor; format: tissue-based
Procedure, shortened: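 CB2 sites from frozen mouse spleen membrane preparation; [3H]CP-55,940 displacement, filtered over GF/B with 0.5% BSA in wash buffer, scintillation counting. Ki by nonlinear regression from three independent experiments run in duplicate, mean of three values.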

SMILES	Ki (Cannabinoid receptor 2 [1])	Ki (Cannabinoid receptor 2 [2])
CC1(C)Oc2cc(C3(CCCCCBr)CCC3)cc(O)c2[C@@H]2C[C@@H](O)CC[C@H]21	1.63 nM	1.67 nM
CC1(C)Oc2cc(C3(CCCCCBr)CCC3)cc(O)c2[C@@H]2C[C@H](O)CC[C@H]21	1.62 nM	2.76 nM

From ChEMBL document CHEMBL1255228 (J Med Chem, 2010)
